The structures appear in SMILES notation.

The assay has as its target T1, hRIPK1 (aa 1-375) fusion protein (Homo sapiens, UniProt Q13546).
T1 sequence (Q13546 1-375): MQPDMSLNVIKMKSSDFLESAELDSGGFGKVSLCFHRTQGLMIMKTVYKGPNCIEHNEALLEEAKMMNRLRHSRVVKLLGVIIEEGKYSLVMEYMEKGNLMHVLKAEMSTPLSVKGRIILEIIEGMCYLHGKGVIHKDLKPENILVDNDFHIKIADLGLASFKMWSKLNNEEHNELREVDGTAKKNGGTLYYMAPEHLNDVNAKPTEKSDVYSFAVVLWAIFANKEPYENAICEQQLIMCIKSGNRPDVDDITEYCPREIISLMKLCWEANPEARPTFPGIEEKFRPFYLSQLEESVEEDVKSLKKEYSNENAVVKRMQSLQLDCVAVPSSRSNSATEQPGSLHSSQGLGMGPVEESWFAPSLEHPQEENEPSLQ
The experiment in a line: ADP-Glo kinase assay of RIPK1 catalytic activity (autophosphorylation). The conditions noted are these: read-out: ADP-Glo IC50; hRIPK1 3.6 μg/ml, ATP 50 μM, 240 min at room temperature.

With `Cc1ncn(-c2cc(N3CCC(C(=O)N4OCC[C@H]4c4cc(F)cc(C#N)c4)CC3)ncn2)n1` [Example 10, 3-Fluoro-5-[(3S)-2-[1-[6-(3-methyl-1,2,4-triazol-1-yl)pyrimidin-4-yl]piperidine-4-carbonyl]isoxazolidin-3-yl]benzonitrile], the IC50 worked out at 0.0081 µM.
With `Cn1nccc1-c1cc(N2CCC(C(=O)N3OCC[C@H]3c3cc(F)cc(F)c3)CC2)ncn1` [Example 4, [(3S)-3-(3,5-Difluorophenyl)isoxazolidin-2-yl]-[1-[6-(2-methylpyrazol-3-yl)pyrimidin-4-yl]-4-piperidyl]methanone] the figure was 0.025 µM.
Regarding `O=C(C1CCN(c2nccc(-c3ccccc3)n2)CC1)N1N=CCC1c1ccccc1` (stereo not shown) [Comparator Example A, (3-Phenyl-3,4-dihydropyrazol-2-yl)-[1-(4-phenylpyrimidin-2-yl)-4-piperidyl]methanone, reference compound], the IC50 was 0.041 µM.
With `Cc1ncnn1-c1cc(N2CCC(C(=O)N3OCC[C@H]3c3cc(F)cc(C#N)c3)CC2)ncn1` [Example 11, 3-Fluoro-5-[(3S)-2-[1-[6-(5-methyl-1,2,4-triazol-1-yl)pyrimidin-4-yl]piperidine-4-carbonyl]isoxazolidin-3-yl]benzonitrile], the IC50 worked out at 0.0099 µM.
With `Cc1c(F)cc([C@@H]2CCON2C(=O)C2CCN(c3cc(-n4ccnc4C)ncn3)CC2)cc1C#N` [Example 2, 3-Fluoro-2-methyl-5-[(3S)-2-[1-[6-(2-methylimidazol-1-yl)pyrimidin-4-yl]piperidine-4-carbonyl]isoxazolidin-3-yl]benzonitrile] the figure was 0.0121 µM; with `Cc1nc(C2CC2)cn1-c1cc(N2CCC(C(=O)N3OCC[C@H]3c3cc(F)cc(C#N)c3)CC2)ncn1` [Example 7, 3-[(3S)-2-[1-[6-(4-Cyclopropyl-2-methyl-imidazol-1-yl)pyrimidin-4-yl]piperidine-4-carbonyl]isoxazolidin-3-yl]-5-fluoro-benzonitrile], 0.0041 µM; with `Cn1nccc1-c1cc(N2CCC(C(=O)N3OCC[C@H]3c3cc(F)cc(Cl)c3)CC2)ncn1` [Example 5, [(3S)-3-(3-Chloro-5-fluoro-phenyl)isoxazolidin-2-yl]-[1-[6-(2-methylpyrazol-3-yl)pyrimidin-4-yl]-4-piperidyl]methanone], 0.013 µM.
Then `Cc1nccn1-c1cc(N2CCC(C(=O)N3OCC[C@H]3c3cc(F)cc(C#N)c3)CC2)ncn1` [Example 1, 3-Fluoro-5-[(3S)-2-[1-[6-(2-methylimidazol-1-yl)pyrimidin-4-yl]piperidine-4-carbonyl]isoxazolidin-3-yl]benzonitrile], with 0.0158 µM.
Regarding `Cc1nnc(-c2cc(N3CCC(C(=O)N4N=CC[C@H]4c4ccccc4)CC3)ncn2)o1` [Comparator Example C, [1-[6-(5-Methyl-1,3,4-oxadiazol-2-yl)pyrimidin-4-yl]-4-piperidyl]-[(3S)-3-phenyl-3,4-dihydropyrazol-2-yl]methanone, reference compound], the IC50 came to 0.037 µM.
Then `Cc1cnn(-c2ncnc(N3CCC(C(=O)N4OCC[C@H]4c4cc(F)c(C)c(C#N)c4)CC3)c2F)c1` [Example 14, 3-Fluoro-5-[(3S)-2-[1-[5-fluoro-6-(4-methylpyrazol-1-yl)pyrimidin-4-yl]piperidine-4-carbonyl]isoxazolidin-3-yl]-2-methyl-benzonitrile], with 0.0185 µM; and `Cn1nncc1-c1cc(N2CCC(C(=O)N3OCC[C@H]3c3cc(F)cc(C#N)c3)CC2)ncn1` [Example 12, 3-Fluoro-5-[(3S)-2-[1-[6-(3-methyltriazol-4-yl)pyrimidin-4-yl]piperidine-4-carbonyl]isoxazolidin-3-yl]benzonitrile], with 0.013 µM; and `Cc1nnc(-c2cc(N3CCC(C(=O)N4OCC[C@H]4c4cc(F)cc(C#N)c4)CC3)ncn2)o1` [Comparator Example E, 3-Fluoro-5-[(3S)-2-[1-[6-(5-methyl-1,3,4-oxadiazol-2-yl)pyrimidin-4-yl]piperidine-4-carbonyl]isoxazolidin-3-yl]benzonitrile, reference compound], with 0.035 µM.
For `Cc1c(F)cc([C@@H]2CCON2C(=O)C2CCN(c3cc(-n4cc(C5CC5)nc4C)ncn3)CC2)cc1C#N` [Example 8, 5-[(3S)-2-[1-[6-(4-Cyclopropyl-2-methyl-imidazol-1-yl)pyrimidin-4-yl]piperidine-4-carbonyl]isoxazolidin-3-yl]-3-fluoro-2-methyl-benzonitrile], the IC50 came to 0.0059 µM.
Then `Cc1nccn1-c1ncnc(N2CCC(C(=O)N3OCC[C@H]3c3cc(F)cc(C#N)c3)CC2)c1F` [Example 13, 3-Fluoro-5-[(3S)-2-[1-[5-fluoro-6-(2-methylimidazol-1-yl)pyrimidin-4-yl]piperidine-4-carbonyl]isoxazolidin-3-yl]benzonitrile], with 0.0149 µM; and `Cc1nnc(-c2cc(N3CCC(C(=O)N4OCC[C@H]4c4ccccc4)CC3)ncn2)o1` [Comparator Example D, [1-[6-(5-Methyl-1,3,4-oxadiazol-2-yl)pyrimidin-4-yl]-4-piperidyl]-[(3S)-3-phenylisoxazolidin-2-yl]methanone, reference compound], with 0.031 µM.
As for `Cc1n[nH]cc1-c1cc(N2CCC(C(=O)N3OCC[C@H]3c3cc(F)cc(C#N)c3)CC2)ncn1` [Example 6, 3-Fluoro-5-[(3S)-2-[1-[6-(3-methyl-1H-pyrazol-4-yl)pyrimidin-4-yl]piperidine-4-carbonyl]isoxazolidin-3-yl]benzonitrile], the 50% inhibitory concentration (IC50) amounted to 0.0178 µM.
